The subject of data set [1] is tumor cells. Put plainly: Cytokine modulation of CsA-induced SGVHD in the rat model. As to conditions: low-dose 5-10,000 units/d alone. In kind it is in vivo. The source says:
One approach therefore was to amplify the autoreactive effector cells by the administration of IL-2. […] This activity of the interferons in SGVHD appears to be mediated through increasing the expression of MHC class II determinants on the tumor, as the interferons have no direct activity on their own in this animal model. Moreover, resolution of the tumor was associated with the development of tumor-specific immunity as the rats were immune to rechallenge with the tumor after resolution of the SGVHD. […] This dose of IL-2, however, appears to have an additive effect when used in combination with interferon-γ, increasing the tumor cell kill by 1-2 logs compared to interferon-γ alone.

For a further data set, the system named is CRL 1662 myeloma cells. Put plainly: Antitumor activity after adoptive transfer of syngeneic GVHD effector T cells. In kind it is in vivo, rat. As to conditions: with syngeneic GVHD effector cells; 2.5×10^4 CRL 1662 cells; cytokines for ten days. The procedure:
Nylon wool nonadherent spleen cells (50×10^6) from Lou M animals with syngeneic GVHD were adoptively transferred into secondary Lou M recipients (irradiated, bone marrow reconstituted) challenged with 2.5×10^4 CRL 1662 myeloma cells. Animals were treated with gamma-interferon (50,000 U/d), IL-2 (10,000 U/d), or a combination for ten days. Survival was assessed and log tumor cell kill was estimated from dose response studies (see Table 6).

Data set [2] deals with tumor cells. Particulars: high-dose 50,000-100,000 u/d with CsA; cited from earlier work.

For the substance IL-2: cytokine, the “immunomodulatory effects on CsA-induced SGVHD” value with tumor cells [1] was “no immunomodulatory effects”. Also, in the data set with CRL 1662 myeloma cells, the “Estimated Log Tumor Cell Kill” value was 2.0-2.5. Also, the “exacerbation of the clinical autoimmune syndrome” value in the data set on tumor cells [2] was “death of all the animals”.

The values are drawn from patent US6326465A, “Immunomodulatory polypeptides derived from the invariant chain of MHC class II” (The Johns Hopkins University, priority 1998, dated 2001).
